Data from patent US10420803B2, “Differentiation of pluripotent stem cells to intestinal midgut endoderm cells” (Janssen Biotech, Inc., priority 2016, dated 2019).

Tests used:
[1] = tested on: H1-hESC-derived S3D5 cells; test: Gene expression by qPCR (Taqman Arrays) in S3D5 cells; assay type: cell-based, human
From the text: (§1) Differentiation: The cultures were differentiated using the following protocol. During Stages 1 through 3 of the protocol, cultures were maintained on planar adherent cultures. Others, however, have described differentiation using suspension culture including US US2014/0242693, which is incorporated by reference in its entirety; the protocol described herein can be modified and performed in suspension, which provides for scalability of manufacturing. The following nomenclature, S#D#, specifies exact time during Stages 1 through 3. For example, S1D3 is stage 1 day 3. Briefly, each stage defines differentiation towards definitive endoderm (stage 1), primitive gut tube (stage 2), and intestinal midgut endoderm (stage 3). • a. Stage 1 (3 days): Cells were cultured for one day in the following Stage 1 media:
For quantification of gene expression at various stages, Caco-2, H1-hESC, S1D3, S2D2, S3D2 and S3D5 cells were harvested, as described in Nature Biotechnology, 2014 (32) 11, 1121-1133. Briefly, gene expression was assessed in cells using custom Taqman® Arrays (Applied Biosystems, Foster City, Calif.); Open Array® (OA) was used for CDX2, FOXA2, SOX2, SOX9, PDX1, ALB, PTF1A, and Taqman® Low Density Array (TLDA) was used for KLF5, HOXC5, and LGR5, with housekeeping gene GAPDH used for both tests. Data were analyzed using Sequence Detection Software (Applied Biosystems, Foster City, Calif.), and normalized using GAPDH as a housekeeping gene to undifferentiated H1-hESC using the ΔΔCt method. Primer details are outlined in Table IV.

[2] = tested on: H1-hESC-derived S3D5 cells; test: FACS quantification of protein co-presence in S3D5 cells; assay type: cell-based, human
From the text: as §1
Quantification of differentiated cells: For quantification of protein presence co-localization, S3D5 cells were harvested and analyzed by FACS. FACS staining was conducted as described in Nature Biotechnology, 2014 (32) 11, 1121-1133, incorporated herein by reference in its entirety, and using the antibodies listed in Table II. In brief, differentiated cells were incubated in TrypLE™ Express (Life Technologies, Carlsbad, Calif., Catalog No. 12604) for 5-10 minutes at 37° C., released into a single-cell suspension, after which they were washed twice with a staining buffer of PBS containing 0.2% BSA (BD Biosciences, San Jose, Calif., Catalog No. 554657). Intracellular antibody staining was accomplished by utilizing the LIVE/DEAD Violet Fluorescent reactive dye (Life Technologies, Carlsbad, Calif., Catalog No. L34955) at 4° C. for 30 minutes followed by a single wash in cold PBS. Fixing of cells was in 300 μl of Cytofix/Cytoperm Buffer (BD Biosciences, San Jose, Calif., Catalog No. 554723) followed by two washes in Perm/Wash Buffer (BD Biosciences, San Jose, Calif., Catalog No. 554722). Cells were then incubated with the appropriate antibodies at 4° C. for 30 minutes (for unconjugated antibodies) or 1 hour (for conjugated antibodies), and then washed twice prior to analysis on the BD FACS Canto II using BD FACS Diva Software with at least 30,000 events being acquired. Non-viable cells were excluded during FACS analysis, and gating was determined by using isotype antibodies (“IgG”). IgG FACS data is shown as the top panel for each FACS experiment presented. Antibodies were tested for specificity using positive controls, such as Caco-2 cells, or negative controls, such as S1D3 definitive endoderm (“DE”) cells.

[3] = S3D5, compared to pancreas-biased S4D3 cells

With “BMP2: Bone morphogenic protein-2, alternative to BMP4 during Stage 3, with retinoic acid in BLAR medium” the ALB gene expression ([1]; S3D5) was “not observed”, the HOXA13 gene expression ([1]; S3D5) was “not induced” and the HOXC5 gene expression ([1]; S3D5) was “strongly induced”. For the same substance, the KLF5 gene expression ([1]; S3D5) was “strongly upregulated”, the LGR5 gene expression ([1]; S3D5) was “not induced” and the SOX2 gene expression ([1]; S3D5) was “below levels seen in hESC and Caco-2 cells”. The SOX9 gene expression ([1]; S3D5, compared to Caco-2 cells) was “Strong induction”, the PDX1 gene expression [1, 3] was “induced at low levels” and the PTF1A gene expression [1, 3] was “not induced”. For the same substance, the CDX2 gene expression ([1]; during Stage 3) was “induced”, the FOXA2 gene expression ([1]; during Stage 3) was “maintained” and the “S3D5 cells exhibiting SOX2 and CDX2 co-presence” value [2] was 0.8%. The “percent of cells co-positive for both CDX2 and PDX1” value [2] was 45.5%, the “percent of cells co-present for both CDX2 and SOX9” value [2] was 99.8% and the “percent of S3D5 cells co-present for both CDX2 and FOXA2 protein” value ([2]; Stage 3 in BLAR medium with 1 μM retinoic acid and 50 ng/ml BMP) was 94%. The “percentage KI67-protein positive cells of total S3D5 cells” value ([2]; total cells >90% CDX2-positive) was 14.1%.
